An excerpt weighted towards active compounds, which were near 3.7% of everything screened.
Nrf2 block = inhibitors of Nrf2 signaling; Potency, µM (top dose mostly 46 µM), for inactives: top-dose activity change, negative = inhibition, most hits filed as inhibitors; actives 2.1% (n = 360,000); A549 ARE-Fluc reporter, luciferase luminescence, 18-24 h; AID 504444; also: potency is read from the fitted curve at half-maximal effect; % is scaled to controls: 0 for no effect and ±100 for the full control effect; nearly all actives have a fitted effect of over 60% in size
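A549 ARE_Fluc cells (5000/well, 5% FBS OPTI-MEM) pre-incubated 2 h, then treated with compounds 18-24 h at 37C/5% CO2 in concentration-response. CellTiter-Fluor viability read first; BugLite luciferase luminescence after 15 min at room temperature gives Nrf2 activity.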
Nrf2 activator = activators of Nrf2 (ARE) signaling. AREc32 ARE-luciferase reporter (MCF7-derived line), luminescence, 24 h. Potency, µM (titrated, usually from 46.1 µM), without a hit: at the top dose activation, hits mostly activators. actives 0.31% (n = 410,000). AID 624171; also: potency is read from the fitted curve at half-maximal effect; % of control where 0% means no effect; nearly all actives have a fitted effect of over 65% in size
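AREc32 cells carrying an ARE-driven firefly luciferase reporter were seeded at 1000 cells/well in OPTI-MEM with 5% FBS, then exposed to compound for 24 hr at 37 deg C. Luminescence was read with Steady-Glo after 30 min at RT.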
miR-21 reporter = raises the signal of a miR-21 reporter; Potency, µM (doses to about 38.3 µM), inactives show top-dose reporter change, positive = more light; HeLa miR-21 FLuc reporter, luciferase, 48 h; AID 2288; 340,000 tested, under 10 active; active = well fitted rising curve with a large enough effect; inconclusive = small, poorly fitted or top-dose-only effect; inactive = no such curve, though single readings can be large or run the other way;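 further: % of control where 0% means no effect; miR-21 action dims this reporter so a rising signal means less miR-21 action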
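HeLa cells endogenously expressing miR-21, stably carrying CMV-driven firefly luciferase with a downstream miR-21 binding site, 2000 cells/well. Titrations up to approximately 40 uM, 48 hours; luciferase luminescence read.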
ClpP mod = qHTS Assay for Activators of ClpP | purified B. subtilis ClpP, FRET peptide cleavage, 20 min | Potency, µM (series often up to 57.5 µM), for the others: at the top dose activity change, negative = active | AID 651965, 2013 | ATP-dependent Clp protease proteolytic subunit (Bacillus subtilis (strain 168)), P80244 | actives 1.9% (n = 340,000); active = well fitted falling curve with a large enough effect; inconclusive = small, poorly fitted or top-dose-only effect; inactive = no such curve, though single readings can be large or run the other way; also: potency is read from the fitted curve at half-maximal effect; the source files actives as falling curves though it sought activators and does not explain the sign; nearly all actives have a fitted effect of over 65% in size
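FRET quenching reversal measured ClpP activation: 10 microg/mL B. subtilis ClpP at pH 8 with the FRET-FV decapeptide, read at 430 nm after 320 nm excitation. The 20-min minus 0-min signal was scaled between DMSO/no-enzyme wells and ADEP (5.8 microM final).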
A549 tox = kills or reduces viability of A549 cells in Nrf2 counter-screen. Potency, µM (titrated, usually from 46 µM), for inactives: at the top dose activity change, negative = cytotoxicity, most hits filed as inhibitors. actives 0.16% (n = 390,000). A549 ARE-Fluc cells, CellTiter-Fluor viability, 18-24 h; also: potency is read from the fitted curve at half-maximal effect; % is scaled to controls: 0 for no effect and ±100 for the full control effect
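A549 ARE_Fluc cells in 5% FBS OPTI-MEM were exposed to compounds in concentration-response for 18-24 h at 37 deg C. Viability was read by CellTiter-Fluor fluorescence (Ex 405/Em 525) after 30 min, before the luciferase read.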
TCR activator = activators of T cell receptors. primary human leukocytes, anti-CD3, IL-2 HTRF, 48 h. Potency, µM (series often up to 9.22 µM), without a hit: top-dose activation of IL-2 secretion, actives largely listed as activators. 330,000 tested, under 10 active. AID 504894; also: % of control where 0% means no effect
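HTRF read-out of IL-2 secretion: europium cryptate donor excited at 320nm, d2 acceptor emission at 665nm. Cells were primary human leukocytes incubated 48 hr with compounds and a-CD3 beads, supplying TCR signal only.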
Active calls of the source: *; ? = inconclusive; nt = no result given; [ ] = dose if it differs, or a comment. Unless noted, calls follow the shape of the dose curve; as a rule, active = well fitted curve in the direction sought with a large enough effect; inconclusive = small, poorly fitted or top-dose-only effect, or another doubt; inactive = no such curve, though single readings can be large; an effect the other way counts as inactive or inconclusive.

SMILES	Nrf2 block	Nrf2 activator	miR-21 reporter	ClpP mod	A549 tox	TCR activator
CCCNC(=O)CCc1nnc2ccc(N3CCN(c4cccc(OC)c4)CC3)nn12	-4.2%	-0.9%	4.9%	-3.0%	4.2%	nt
COC(=O)c1c(NC(NC(C)=O)C(Cl)(Cl)Cl)sc2c1CCCC2 (configuration not stated)	20.6µM*	7.0%	13.1%	-3.6%	0.6%	-5.7%[46.1 µM]
COC(=O)c1c(NC(NC(=O)C(C)C)C(Cl)(Cl)Cl)sc2c1CCC2 (configuration not stated)	18.4µM*	3.2%	13.8%	?	-0.9%	2.5%[46.1 µM]
CCOC(=O)c1c(NC(NC(C)=O)C(Cl)(Cl)Cl)sc2c1CCCC2 (configuration not stated)	?	7.1%	11.4%	2.3%	-0.3%	-1.1%[46.1 µM]
COC(=O)c1c(NC(NC(=O)C(C)(C)C)C(Cl)(Cl)Cl)sc2c1CCC2 (configuration not stated)	?	4.8%	1.0%	0.6%	-3.4%	1.8%
Cc1cc2c(s1)c1cnn(Cc3cccc4cccnc34)c(=O)c1n2C	-9.3%	nt	nt	nt	-10.1%	nt
Cn1c(=O)c2cc(C(=O)NC3CCCCCC3)sc2c2ccccc21	18.4µM*	8.2%	-1.9%	?	?	nt
O=C(C1CCC1)N1CCN(c2ccnc3cc(Cl)ccc23)CC1	-25.6%	-0.2%	17.6%	-2.2%	1.4%	7.6%
N#Cc1cccc(S(=O)(=O)N2CCN(c3ccnc4cc(Cl)ccc34)CC2)c1	10.3µM*	-0.3%	7.6%	4.0%	-13.6%	-6.8%
COc1ccccc1NC(=O)N1CCN(c2ccnc3cc(Cl)ccc23)CC1	13µM*	4.6%	18.7%	-1.1%	-1.7%	1.6%
COc1ccccc1N1CCN(c2ccnc3cc(Cl)ccc23)CC1	?	-0.4%	23.6%	nt	-8.4%	-1.0%
O=C(C1CCCCC1)N1CCN(c2ccnc3cc(Cl)ccc23)CC1	20.6µM*	2.8%	?	nt	-4.4%	-51.8%
CC(=O)c1ccc(N2CCN(c3ccnc4cc(Cl)ccc34)CC2)cc1	1.64µM*	0.4%	5.9%	nt	-1.2%	-1.4%
O=c1[nH]c(=S)[nH]cc1Oc1ccccc1	-0.3%	-0.6%	nt	nt	0.3%	-1.2%
O=C(Nc1ccc(OC(F)(F)F)cc1)c1ccc2nccnc2c1	13µM*	6.3%	5.0%	-2.0%	?	-3.9%
O=C(C1CC1)N1CCN(c2ccnc3cc(Cl)ccc23)CC1	?	-0.3%	5.2%	3.3%	-7.9%	-0.3%
CC(C)(C)C(=O)N1CCN(c2ccnc3cc(Cl)ccc23)CC1	8.2µM*	1.7%	15.7%	-1.7%	-1.6%	-3.2%
O=C(Nc1ccc(OC(F)(F)F)cc1)N1CCN(c2ccnc3cc(Cl)ccc23)CC1	4.61µM*	-0.4%	24.9%	?	?	-12.0%
CCCCc1nn2c(=O)cc(COC(=O)COc3ccc(C)cc3)nc2s1	-4.8%	-0.9%	-1.1%	-23.4%	0.0%	nt
CNc1cccc(S(=O)(=O)N2CCN(S(=O)(=O)c3ccc4c(c3)OCCO4)CC2)c1	-1.9%	nt	nt	nt	6.0%	nt
CC1(c2ccccc2)CC(C)(C)N2C(=O)C3(C(C#N)=C(N)Oc4cc(O)ccc43)c3cccc1c32 (configuration not stated)	20.6µM*	0.0%	19.6%	-3.3%	?	nt
Cc1cc2c3c(c1)C(C)(c1ccccc1)CC(C)(C)N3C(=O)C21C(C#N)=C(N)OC2=C1C(=O)CC(C)(C)C2 (configuration not stated)	-81.1%	-0.4%	?	0.8%	-16.8%	-0.9%
CCOC(=O)C1CCN(C(=O)Cn2c(-c3cccs3)cc3cc(Cl)ccc32)CC1	9.1%	1.1%	2.6%	35.5µM*	-7.7%	nt
CC1CCN(C(=O)Cn2c(-c3cccs3)cc3cc(Cl)ccc32)CC1	?	14.7%	0.1%	35.5µM*	-16.8%	nt
CCOC(=O)C1CCN(C(=O)c2cccs2)CC1	14.8%	-0.7%	-1.4%	-1.6%	12.2%	-1.1%
COc1ccc(NC(=S)NC(NC(=O)c2cccc(Cl)c2)C(Cl)(Cl)Cl)c([N+](=O)[O-])c1 (configuration not stated)	25.9µM*	10.5%	?	1.7%	?	-3.7%
Cc1ccc(S(=O)(=O)N2CC(O)CC2C(=O)O)cc1 (configuration not stated)	1.9%	0.4%	2.3%	35.5µM*	0.0%	-2.9%
O=[N+]([O-])c1ccc(N2CCN(C(=S)Nc3ccc(F)cc3F)CC2)cc1	23.1µM*	3.4%	13.6%	nt	?	-18.8%
O=[N+]([O-])c1ccc(N2CCN(C(=S)Nc3cccc(F)c3)CC2)cc1	16.4µM*	3.8%	9.3%	-0.6%	-18.3%	-2.1%
O=[N+]([O-])c1ccc(N2CCN(C(=S)Nc3ccc(F)cc3)CC2)cc1	?	0.5%	11.4%	nt	-16.8%	-16.7%
Cc1ccc(S(=O)(=O)CCC(=O)OCC(=O)N(Cc2ccccc2)C(C)C)cc1	8.7%	0.2%	nt	15.8µM*	-0.5%	-3.7%
COC(=O)c1ccc(COc2ccc3ccc(=O)oc3c2)o1	16.5%	4.2%	-6.5%	3.0%	3.6%	-19.9%
O=C(O)c1ccc(COc2ccc3c4c(c(=O)oc3c2)CCC4)o1	?	-1.3%	-8.9%	2.51µM*	1.6%	-0.4%
COC(=O)c1cc(COc2ccc3ccc(=O)oc3c2)c(C)o1	15.4%	4.9%	-2.3%	14.1µM*	5.9%	-4.5%
COC(=O)c1ccc(COc2ccc3c(C)c(C)c(=O)oc3c2)o1	0.8%	-0.6%	-13.3%	2.82µM*	3.7%	-2.7%
COC(=O)c1ccc(COc2ccc(C)c(C)c2)o1	?	-0.2%	-64.1%	-2.1%	-1.0%	6.8%
CCCOc1ccc2c(=O)c(-c3cc(C(=O)OC)oc3C)c(C)oc2c1	16.4µM*	-0.2%	4.1%	-0.2%	-5.6%	3.9%
O=C1CCCC[C@@H](CO)[C@H](O)C[C@H](c2ccccc2)O1	nt	-1.7%	nt	2.2%	nt	nt
CS(=O)(=O)Oc1ccc(Br)cc1/C=C1/N=C(c2ccco2)OC1=O	3.6%	-0.3%	0.3%	-16.3%	0.5%	0.3%[46.1 µM]
O=C(Cn1c(=O)nc(-c2ccccc2)c2ccccc21)N1CCN(c2ccc(F)cc2)CC1	nt	1.0%	1.2%	?	-3.4%	nt
O=C(CNS(=O)(=O)c1cccs1)N1CCN(c2ccccc2F)CC1	?	2.4%	-36.7%	-0.3%	1.8%	4.3%
O=C(Cn1c(-c2cccs2)cc2ccccc21)N1CCN(c2ccccc2F)CC1	-0.5%	0.9%	8.2%	14.1µM*	12.5%	nt
O=C(Cn1c(-c2cccs2)cc2cc(Cl)ccc21)N1CCN(c2ccccc2F)CC1	29.8%	0.9%	0.8%	12.6µM*	-10.7%	nt

Gathered by group: the entries above with a nitro group on carbon.
SMILES	Nrf2 block	Nrf2 activator	miR-21 reporter	ClpP mod	A549 tox	TCR activator
COc1ccc(NC(=S)NC(NC(=O)c2cccc(Cl)c2)C(Cl)(Cl)Cl)c([N+](=O)[O-])c1 (configuration not stated)	25.9µM*	10.5%	?	1.7%	?	-3.7%
O=[N+]([O-])c1ccc(N2CCN(C(=S)Nc3ccc(F)cc3F)CC2)cc1	23.1µM*	3.4%	13.6%	nt	?	-18.8%
O=[N+]([O-])c1ccc(N2CCN(C(=S)Nc3cccc(F)c3)CC2)cc1	16.4µM*	3.8%	9.3%	-0.6%	-18.3%	-2.1%
O=[N+]([O-])c1ccc(N2CCN(C(=S)Nc3ccc(F)cc3)CC2)cc1	?	0.5%	11.4%	nt	-16.8%	-16.7%

From PubChem BioAssay
